The values below come from US8975249B2, “Heterocyclic compounds and uses thereof” (Celgene Avilomics Research, Inc., priority 2010, dated 2015).

The target of one experiment is EGFR T790M/L858R (Homo sapiens (Human), UniProt P00533, L858R/T790M). As to the kind of experiment: Omnia biochemical assay, EGFR-T790M/L858R active enzyme. Conditions: [EGFR-T790M/L858R]=2.5 nM, [ATP]=20 uM, 30 min pre-incubation.
Usually IC50 stands for the concentration needed to halve the response being measured. A lower IC50 goes with greater potency in that assay. For `C=CC(=O)Nc1cccc(Oc2nc(Nc3ccc(N4CCOCC4)cc3OC(F)F)ncc2C(F)(F)F)c1` [Compound I-13, N-(3-(2-(2-(difluoromethoxy)-4-morpholinophenylamino)-5-(trifluoromethyl)pyrimidin-4-yloxy)phenyl)acrylamide], the IC50 is below 1 nM.

As to `C=CC(=O)Nc1cccc(Nc2nc(Nc3ccc(N4CCN(C(=O)NC)CC4)cc3OC)ncc2C(F)(F)F)c1` [Compound I-28, 4-(4-(4-(3-acrylamidophenylamino)-5-(trifluoromethyl)pyrimidin-2-ylamino)-3-methoxyphenyl)-N-methylpiperazine-1-carboxamide], the IC50 is below 1 nM.

In turn, `C=CC(=O)Nc1cccc(Nc2nc(Nc3ccc(N4CCN(S(C)(=O)=O)CC4)cc3OC)ncc2Cl)c1` [Compound I-41, N-(3-(5-chloro-2-(2-methoxy-4-(4-(methylsulfonyl)piperazin-1-yl)phenylamino)pyrimidin-4-ylamino)phenyl)acrylamide] yielded an IC50 of 1 to 10 nM.

The molecule `C=CC(=O)Nc1cccc(Oc2nc(Nc3ccc(N4CCN(C(=O)OC(C)(C)C)CC4)cc3OC(F)(F)F)ncc2Cl)c1` [Compound I-47, tert-butyl 4-(4-(4-(3-acrylamidophenoxy)-5-chloropyrimidin-2-ylamino)-3-(trifluoromethoxy)phenyl)piperazine-1-carboxylate] returned an IC50 of 10 to 30 nM.

As to `C=CC(=O)Nc1cccc(Nc2nc(Nc3ccc(N4CCN(C(=O)CO)CC4)cc3OC)ncc2C(F)(F)F)c1` [Compound I-6, N-(3-(2-(4-(4-(2-hydroxyacetyl)piperazin-1-yl)-2-methoxyphenylamino)-5-(trifluoromethyl)pyrimidin-4-ylamino)phenyl)acrylamide], the IC50 was below 1 nM.

Regarding `C=CC(=O)Nc1cccc(Nc2nc(Nc3ccc(N4CCN(C(C)=O)CC4)cc3OC)ncc2Cl)c1` [Compound I-8, N-(3-(2-(4-(4-acetylpiperazin-1-yl)-2-methoxyphenylamino)-5-chloropyrimidin-4-ylamino)phenyl)acrylamide], the IC50 was in the range of 1 to 10 nM.

For `C=CC(=O)Nc1cccc(Nc2nc(Nc3ccc(N4CCN(C(=O)OC)CC4)cc3OC)ncc2C(F)(F)F)c1` [Compound I-29, methyl 4-(4-(4-(3-acrylamidophenylamino)-5-(trifluoromethyl)pyrimidin-2-ylamino)-3-methoxyphenyl)piperazine-1-carboxylate], the IC50 is below 1 nM.

In turn, `C=CC(=O)Nc1cccc(Oc2nc(Nc3ccc(N4CCOCC4)cc3OC)ncc2C(F)(F)F)c1` [Compound I-1, N-(3-(2-(2-methoxy-4-morpholinophenylamino)-5-(trifluoromethyl)pyrimidin-4-yloxy)phenyl)acrylamide] showed an IC50 of 1 to 10 nM.

Consider `C=CC(=O)Nc1cccc(Oc2nc(Nc3ccc(N4CCN(C(=O)OC(C)(C)C)CC4)cc3OC)ncc2C(F)(F)F)c1` [Compound I-42, tert-butyl 4-(4-(4-(3-acrylamidophenoxy)-5-(trifluoromethyl)pyrimidin-2-ylamino)-3-methoxyphenyl)piperazine-1-carboxylate], for which the IC50 is 300 to 1000 nM.

Turning to `C=CC(=O)Nc1cccc(Nc2nc(Nc3ccc(N4CCN(C(C)=O)CC4)cc3OC)ncc2Br)c1` [Compound I-40, N-(3-(2-(4-(4-acetylpiperazin-1-yl)-2-methoxyphenylamino)-5-bromopyrimidin-4-ylamino)phenyl)acrylamide], the IC50 fell in the range of 1 to 10 nM.

Molecule `C=CC(=O)Nc1cccc(Nc2nc(Nc3ccc(N4CCN(C(=O)CO)CC4)cc3OC(F)F)ncc2C(F)(F)F)c1` [Compound I-31, N-(3-(2-(2-(difluoromethoxy)-4-(4-(2-hydroxyacetyl)piperazin-1-yl)phenylamino)-5-(trifluoromethyl)pyrimidin-4-ylamino)phenyl)acrylamide] returned an IC50 below 1 nM.

Staying with this experiment, now noted: [EGFR-T790M/L858R]=[…], [ATP]=20 uM, 30 min pre-incubation.
For the molecule “N-(3-(5-chloro-2-(2-methoxy-4-morpholinophenylamino)pyrimidin-4-ylamino)phenyl)acrylamide [Compound I-15]”, the IC50 fell in the range of 1 to 10 nM.

The same experiment, now with this note: biochemical IC50 WT EGFR / EGFR (T790M/L858R).
“N-(3-(5-chloro-2-(2-methoxy-4-morpholinophenylamino)pyrimidin-4-ylamino)phenyl)acrylamide [Compound I-15]”: the “Ratio WT/mutant” value is given as above 15.
